{"sequences": {"note": "Sequences of proteins named here, by UniProt entry; tags and fusion partners are left off. A change or cut given only in a name is not applied to a line headed by its entry.", "UniProt P21729": "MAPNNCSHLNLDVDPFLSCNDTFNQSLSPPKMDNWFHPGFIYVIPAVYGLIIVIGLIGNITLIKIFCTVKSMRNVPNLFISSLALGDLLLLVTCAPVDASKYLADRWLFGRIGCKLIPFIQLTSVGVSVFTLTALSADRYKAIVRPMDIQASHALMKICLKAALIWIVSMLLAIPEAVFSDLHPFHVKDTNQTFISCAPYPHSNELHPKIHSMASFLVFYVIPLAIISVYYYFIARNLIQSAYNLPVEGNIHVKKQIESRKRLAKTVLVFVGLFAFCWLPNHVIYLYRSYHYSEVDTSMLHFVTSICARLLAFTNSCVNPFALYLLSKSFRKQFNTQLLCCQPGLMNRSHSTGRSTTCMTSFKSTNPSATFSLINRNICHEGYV"}, "source": "patent US20170224778A1", "about": "“COMPOSITIONS AND METHODS THAT TARGET REGULATION OF BREATHING” (The Board of Trustees of the Leland Stanford Junior …, priority 2016, published 2017)", "key": {"GRPR [1]": {"biological_target": "T1, GRPR (Rattus norvegicus, UniProt P52500)", "T1 construct": "from tissue; host or cells: preBötC of the ventral medulla of living anesthetized Sprague Dawley rats", "assay": "Sighing and breathing of urethane-anesthetized rats after bilateral preBötC injection (GRP pathway)", "format": "in vivo", "settings": "100 nl, 3 μM injected bilaterally into preBötC, n=5"}, "GRPR [2]": {"biological_target": "T2, GRPR (Mus musculus, UniProt P21729)", "T2 construct": "doublet rate increased following application of NMB or GRP to preBötC slice preparations; from tissue; host or cells: 550-μm transverse medullary slices with the preBötC, neonatal C57BL/6 mice (P0-5)", "assay": "Doublets (in vitro sigh signature) in explanted preBötC brain slices, GRP effect", "format": "cell-based", "procedure": "In vitro slice preparation, recording, and analysis. Rhythmic 550-μm-thick transverse medullary slices containing the preBötC and XII nerve from neonatal C57BL/6 mice (P0-5) were prepared as described previously (Kam et al., 2013). The medullary slice was cut in artificial cerebrospinal fluid (ACSF) containing (in mM): 124 NaCl, 3 KCl, 1.5 CaCl2, 1 MgSO4, 25 NaHCO3, 0.5 NaH2PO4, and 30 D-glucose, equilibrated with 95% O2 and 5% CO2 (4° C., pH=7.4). For recording, extracellular K+ was raised to 9 mM to replace excitatory afferent drive lost in the cutting process. Slices were perfused at 27° C. and 4 ml/min and allowed to equilibrate for 30 minutes. Respiratory activity reflecting suprathreshold action potential (AP) firing from populations of neurons was recorded as XII bursts from either XII nerve roots and as population activity directly from the preBötC using suction electrodes and a MultiClamp 700A or 700B (Molecular Devices, Sunnyvale, Calif., USA), filtered at 2-4 kHz and digitized at 10 kHz. Digitized data were analyzed off-line using custom procedures written for IgorPro (Wavemetrics, Portland, Oreg., USA). Activity was full-wave rectified and digitally integrated with a Paynter filter with a time constant of 20 ms with either custom built electronics or using custom procedures in MATLAB (Mathworks, Natick, Mass., USA). Burst detection and analysis of respiratory-related activity recorded in full-wave rectified XII output or preBötC population recordings were performed using custom software written in IgorPro. Burst parameters were normalized to the mode of the data in the baseline condition. Although there are several proposed definitions of sighs in slice preparations, here we used “doublets” (double-peaked bursts) as the in vitro signature of sighs because, in our preparations, doublets detected both in preBötC neural population activity measurements and cranial nerve XII output recordings shared the increased inspiratory and expiratory duration of sighs. […] Measured doublet intervals were converted to a calculated per hour doublet rate."}}, "data": [{"substance": "gastrin releasing peptide [GRP]", "values": [{"measurement": "sighing increased (fold)", "setting": "GRPR [1]", "result": "8-16 fold"}, {"measurement": "more doublets (fold)", "setting": "GRPR [2]; 3 nM, mouse preBötC brain slices, p=0.003, n=9", "result": 1.7, "unit": "fold"}, {"measurement": "fraction of total events that are doublets", "setting": "GRPR [2]; preBötC slice, p<0.05, n=9", "result": "increasing"}, {"measurement": "interval following a doublet", "setting": "GRPR [2]; preBötC slice, p<0.05, n=9", "result": "decreasing"}]}]}
